In assay [1] the test system is SJSA-1. As to the kind of experiment: SJSA-1 cell viability, Protocol B (CellTiter-Glo).
For assay [2], the system named is SJSA-1. As to the kind of experiment: SJSA-1 growth inhibition, Protocol A (sulphorhodamine B). The conditions noted are these: read-out: SJSA-1 IC50 (μM) (Protocol A).
The mark [3] stands for this setting: read-out: SJSA1 IC50 (μM) (Protocol B), Protocol B.

In general, IC50 refers to the midpoint of a concentration-inhibition curve. Take `CC[C@@](O)(c1cc(F)c2c(c1)C(=O)N(Cc1ccc(C#N)cc1)[C@@]2(O[C@H]1C[C@@H](O)C1)c1ccc(Cl)cc1)C1CCN(C)CC1` (relative stereo) [Example 130, 4-{[(1R)-1-(4-chlorophenyl)-7-fluoro-5-[(1S)-1-hydroxy-1-(1-methylpiperidin-4-yl)propyl]-3-oxo-1-[cis-3-hydroxycyclobutoxy]-2,3-dihydro-1H-isoindol-2-yl]methyl}benzonitrile]: in the assay on SJSA-1 [1] (setting [3]), the IC50 stood at 0.17 µM.

Take `CC[C@@](O)(c1cc(F)c2c(c1)C(=O)N(Cc1ccc(C#N)cc1)[C@@]2(O[C@H]1C[C@@H](O)C1)c1ccc(Cl)cc1)C1CCN(C)CC1` [Example 130, 4-{[(1R)-1-(4-chlorophenyl)-7-fluoro-5-[(1S)-1-hydroxy-1-(1-methylpiperidin-4-yl)propyl]-3-oxo-1-[cis-3-hydroxycyclobutoxy]-2,3-dihydro-1H-isoindol-2-yl]methyl}benzonitrile]: in the assay on SJSA-1 [1] (Homo sapiens, SJSA-1, 72 h, read-out: SJSA1 IC50 (μM) (Protocol B), 72 hrs, CellTiter-Glo), the IC50 stood at 0.23 µM.

For the molecule `CCC(O)(c1cc(F)c2c(c1)C(=O)N(Cc1ncc(C#N)cn1)[C@@]2(O[C@H]1CCOC1)c1ccc(Cl)cc1)c1cn(C)cn1` (some centres unmarked) [Example 370], the IC50 in the assay with SJSA-1 [1] (setting [3]) worked out at 3.5 µM.

For `CCC(O)(CN1CCN(C)CC1)c1cc(F)c2c(c1)C(=O)N(Cc1ncc(Cl)cn1)[C@@]2(O[C@H]1CCOC1)c1ccc(Cl)cc1` (some centres unmarked) [Example 523], in the assay on SJSA-1 [1] (setting [3]), the IC50 was found to be 1.5 µM.

Turning to “(3S)-3-(4-chlorophenyl)-3-[(1R)-1-(4-chlorophenyl)-7-fluoro-5-[1-hydroxy-1-(pyridin-2-yl)propyl]-1-methoxy-3-oxo-2,3-dihydro-1H-isoindol-2-yl] propanoic acid [Example 128]”, in the assay on SJSA-1 [2], the IC50 worked out at 2.4 µM.

(Values after patent publication US20240293364A1, “BIOMARKERS FOR CANCER THERAPY USING MDM2 ANTAGONISTS” (OTSUKA PHARMACEUTICAL CO., LTD., priority 2021, published 2024).)
